Test results as given in ChEMBL document CHEMBL1157711, “Recent advances in the discovery of competitive protein tyrosine phosphatase 1B inhibitors for the treatment of diabetes, obesity, and cancer” (J Med Chem, 2010).

Target: T1, Tyrosine-protein phosphatase non-receptor type 1 (Homo sapiens, UniProt P18031)
T1 sequence (P18031 whole entry): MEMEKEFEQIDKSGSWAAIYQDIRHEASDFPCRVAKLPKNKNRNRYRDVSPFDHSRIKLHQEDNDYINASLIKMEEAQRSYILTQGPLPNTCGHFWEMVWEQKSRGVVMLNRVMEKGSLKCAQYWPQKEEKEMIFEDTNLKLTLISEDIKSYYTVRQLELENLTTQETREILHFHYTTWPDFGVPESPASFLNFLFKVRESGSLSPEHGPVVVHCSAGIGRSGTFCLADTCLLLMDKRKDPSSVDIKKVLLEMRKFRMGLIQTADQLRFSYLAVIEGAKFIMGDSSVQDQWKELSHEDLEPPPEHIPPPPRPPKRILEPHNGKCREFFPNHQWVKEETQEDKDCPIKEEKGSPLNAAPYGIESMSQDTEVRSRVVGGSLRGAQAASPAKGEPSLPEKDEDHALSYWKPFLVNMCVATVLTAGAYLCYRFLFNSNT
Assay: Inhibition of PTP1B

With CCc1cc(C[C@H](NC(C)=O)C(=O)NCCCCOc2cccc(O)c2C(=O)OC)ccc1N(C(=O)C(=O)O)c1ccccc1C(=O)O as the compound, how does the Ki read?
The Ki was 18 nM.
